Laboratory results published in paper PMC4136963, “Structure-Based Design and Synthesis of Antiparasitic Pyrrolopyrimidines Targeting Pteridine Reductase 1” (Journal of Medicinal Chemistry, 2014).

Tested on: HEK 293T cells
Assay: Alamar blue assay against HEK cells
Assay type: cell-based
Details: read-out: HEK (IC50 μM); human HEK cells

## O=[As]c1ccccc1 (stereo not shown)
  IC50: 1.49 µM
